{"source": "ChEMBL document CHEMBL3870360", "about": "“GluN2A-Selective Pyridopyrimidinone Series of NMDAR Positive Allosteric Modulators with an Improved in Vivo Profile” (ACS Med Chem Lett, 2017)", "key": {"[1]": {"test_system": "CHO", "test": "Selectivity ratio of EC50 for GluN1/GluN2C receptor (unknown origin) to EC50 for GluN1/GluN2A receptor (unknown origin) expressed in CHO cells", "format": "cell-based", "conditions": "Homo sapiens"}, "[2]": {"test_system": "CHO", "test": "Selectivity ratio of EC50 for GluN1/GluN2D receptor (unknown origin) to EC50 for GluN1/GluN2A receptor (unknown origin) expressed in CHO cells", "format": "cell-based", "conditions": "Homo sapiens"}}}
{"molecule": "N#C[C@@H]1C[C@H]1c1c(Cl)ccc2nc(Cn3nc(C(F)(F)F)cc3Cl)cc(=O)n12", "values": [{"measurement": "Ratio EC50", "setting": "[1]", "result": "> 100"}, {"measurement": "Ratio EC50", "setting": "[2]", "result": "> 100"}]}
